Target: HRAS wild-type protein (Homo sapiens, UniProt P01112)
Assay: Binding to HRAS by surface plasmon resonance (SPR), KD and KD ratio to KRAS
[1] = ratio of KD with respect to HRAS wild-type protein to KD with respect to KRAS
[2] = ratio of KD for HRAS wild-type protein to KD for KRAS

Protein sequences, listed by entry. Tags and fused reporters are not part of them.
UniProt P01112, whole entry: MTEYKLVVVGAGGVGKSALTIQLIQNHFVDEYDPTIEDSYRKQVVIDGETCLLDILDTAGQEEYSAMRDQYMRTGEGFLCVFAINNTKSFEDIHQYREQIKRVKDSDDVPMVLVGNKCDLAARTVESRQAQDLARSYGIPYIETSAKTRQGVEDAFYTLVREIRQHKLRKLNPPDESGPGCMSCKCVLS

Compound	HRAS /KRAS [1]	HRAS /KRAS [2]
CCO[C@@H]1C[C@H]2C(=O)NC3(CCC3)C(=O)N(C)[C@@H](C3CCCC3)C(=O)N(C)[C@H](C(=O)N(C)C)CC(=O)N(C)[C@@H](CC3CCC3)C(=O)N[C@@H]([C@@H](C)CC)C(=O)N(C)CC(=O)N(C)[C@H]3C/C=C\CCN(C3=O)[C@@H](CC3CCCCC3)C(=O)N(C)CC(=O)N[C@@H](CCc3cc(F)c(C(F)(F)F)c(F)c3)C(=O)N2C1	A (a compound having 10 or more and less than 20 is denoted as A)	–
CC[C@H](C)[C@@H]1NC(=O)[C@H](CC)N(C)C(=O)C[C@@H](C(=O)N(C)C)N(C)C(=O)[C@H](C2CCCC2)N(C)C(=O)C2(CCCC2)NC(=O)[C@@H]2CCCN2C(=O)[C@H](CCc2cc(F)c(C(F)(F)F)c(F)c2)NC(=O)CN(C)C(=O)[C@H](Cc2ccc(C(F)(F)F)cc2)N2C[C@H](C)[C@H](C)C[C@@H](C2=O)N(C)C(=O)CN(C)C1=O	B (a compound having 3 or more and less than 10 is denoted as B)	–
CCO[C@@H]1C[C@H]2C(=O)NC3(CCC3)C(=O)N(C)[C@@H](C3CCCC3)C(=O)N(C)[C@H](C(=O)N(C)C)CC(=O)N(C)[C@@H](CC3CCCC3)C(=O)N[C@@H]([C@@H](C)CC)C(=O)N(C)CC(=O)N(C)[C@H]3C/C=C\CCN(C3=O)[C@@H](Cc3ccc(C)cc3)C(=O)N(C)CC(=O)N[C@@H](CCc3cc(F)c(C(F)(F)F)c(F)c3)C(=O)N2C1	B (a compound having 3 or more and less than 10 is denoted as B)	–
CCOC1CC2C(=O)NC3(CCC3)C(=O)N(C)C(C3CCCC3)C(=O)N(C)C(C(=O)N3CCCC3)CC(=O)N(C)C(CC3CCCCC3)C(=O)NC(C(C)CC)C(=O)N(C)CC(=O)N(C)C3CC=CCCN(C3=O)C(Cc3ccc(C(F)(F)F)cc3)C(=O)N(C)CC(=O)NC(CCc3cc(F)c(C(F)(F)F)c(F)c3)C(=O)N2C1 (stereo not shown)	A (a compound having 10 or more and less than 20 is denoted as A)	–
CCO[C@@H]1C[C@H]2C(=O)NC3(CCC3)C(=O)N(C)[C@@H](C3CCCC3)C(=O)N(C)[C@H](C(=O)N3CCOCC3)CC(=O)N(C)[C@@H](C)C(=O)N[C@@H]([C@@H](C)CC)C(=O)N(C)CC(=O)N(C)[C@H]3C/C=C\CCN(C3=O)[C@@H](Cc3ccc(C(F)(F)F)cc3)C(=O)N(C)CC(=O)N[C@@H](CCc3cc(F)c(C(F)(F)F)c(F)c3)C(=O)N2C1	A (a compound having 10 or more and less than 20 is denoted as A)	–
CCOC[C@H]1C(=O)N[C@@H]([C@@H](C)CC)C(=O)N(C)CC(=O)N(C)[C@H]2C/C=C\CCN(C2=O)[C@@H](CC2CCC(F)(F)CC2)C(=O)N(C)CC(=O)N[C@@H](CCc2ccc(C(F)(F)F)c(OC)c2)C(=O)N2C[C@H](OCC)C[C@H]2C(=O)NC2(CC(C)(C)C2)C(=O)N(C)[C@@H](C(CC)CC)C(=O)N(C)[C@H](C(=O)N(C)C)CC(=O)N1C	–	A (a compound having 10 or more and less than 20 is denoted as A)
CCO[C@@H]1C[C@H]2C(=O)NC3(CCC3)C(=O)N(C)[C@@H](C3CCCC3)C(=O)N(C)[C@H](C(=O)N3CCOCC3)CC(=O)N(C)[C@@H](CC3CCCC3)C(=O)N[C@@H]([C@@H](C)CC)C(=O)N(C)CC(=O)N(C)[C@H]3C/C=C\CCN(C3=O)[C@@H](Cc3ccc(C)cc3)C(=O)N(C)CC(=O)N[C@@H](CCc3cc(F)c(C(F)(F)F)c(F)c3)C(=O)N2C1	A (a compound having 10 or more and less than 20 is denoted as A)	–
CCO[C@@H]1C[C@H]2C(=O)NC3(CCC3)C(=O)N(C)[C@@H](C(CC)CC)C(=O)N(C)[C@H](C(=O)N(C)C)CC(=O)N(C)[C@@H](CC3CC3)C(=O)N[C@@H]([C@@H](C)CC)C(=O)N(C)CC(=O)N(C)[C@H]3C/C=C\CCN(C3=O)[C@@H](CC3CCC(F)(F)CC3)C(=O)N(C)CC(=O)N[C@@H](CCc3cc(F)c(C(F)(F)F)c(F)c3)C(=O)N2C1	A (a compound having 10 or more and less than 20 is denoted as A)	–
CCO[C@@H]1C[C@H]2C(=O)NC3(CC(C)(C)C3)C(=O)N(C)[C@@H](C(CC)CC)C(=O)N(C)[C@H](C(=O)N(C)C)CC(=O)N(C)[C@@H](COC)C(=O)N[C@@H]([C@@H](C)CC)C(=O)N(C)CC(=O)N(C)[C@H]3C/C=C\CCN(C3=O)[C@@H](CC3CCCCC3)C(=O)N(C)CC(=O)N[C@@H](CCc3ccc(C(F)(F)F)c(OC)c3)C(=O)N2C1	–	A (a compound having 10 or more and less than 20 is denoted as A)
CC[C@H](C)[C@@H]1NC(=O)[C@H](CC)N(C)C(=O)C[C@@H](C(=O)N(C)C)N(C)C(=O)[C@H](C2CCCC2)N(C)C(=O)C2(CCCC2)NC(=O)[C@@H]2CCCN2C(=O)[C@H](CCc2cc(F)c(C(F)(F)F)c(F)c2)NC(=O)CN(C)C(=O)[C@H](Cc2ccc(C(F)(F)F)cc2)N2C[C@H](C)CC[C@@H](C2=O)N(C)C(=O)CN(C)C1=O	B (a compound having 3 or more and less than 10 is denoted as B)	–
CCOC1CC2C(=O)NC3(CCC3)C(=O)N(C)C(C3CCCC3)C(=O)N(C)C(C(=O)N(C)C)CC(=O)N(C)C(Cc3cccs3)C(=O)NC(C(C)CC)C(=O)N(C)CC(=O)N(C)C3CCCCCN(C3=O)C(Cc3ccc(F)cc3)C(=O)N(C)CC(=O)NC(CCc3cc(F)c(C(F)(F)F)c(F)c3)C(=O)N2C1 (stereo not shown)	B (a compound having 3 or more and less than 10 is denoted as B)	–
CCO[C@@H]1C[C@H]2C(=O)NC3(CC(C)(C)C3)C(=O)N(C)[C@@H](C3CCCC3)C(=O)N(C)[C@H](C(=O)N(CC)CC)CC(=O)N(C)[C@@H](COC)C(=O)N[C@@H]([C@@H](C)CC)C(=O)N(C)CC(=O)N(C)[C@H]3C/C=C\CCN(C3=O)[C@@H](Cc3ccc(C)cc3)C(=O)N(C)CC(=O)N[C@@H](CCc3ccc(C(F)(F)F)c(OC)c3)C(=O)N2C1	–	A (a compound having 10 or more and less than 20 is denoted as A)
CC[C@H](C)[C@@H]1NC(=O)[C@H](CC2CC2)N(C)C(=O)C[C@@H](C(=O)N2CCOCC2)N(C)C(=O)[C@H](C2CCCC2)N(C)C(=O)C2(CCCC2)NC(=O)[C@@H]2CCCN2C(=O)[C@H](CCc2ccc(C(F)(F)F)c(Cl)c2)NC(=O)CN(C)C(=O)[C@H](Cc2ccc(C(F)(F)F)cc2)N2C[C@H](C)CC[C@@H](C2=O)N(C)C(=O)CN(C)C1=O	B (a compound having 3 or more and less than 10 is denoted as B)	–
CCCCCCC1C(=O)NC(C(C)CC)C(=O)N(C)CC(=O)N(C)C2CC=CCCN(C2=O)C(Cc2ccc(C(F)(F)F)cc2)C(=O)N(C)CC(=O)NC(CCc2ccc3sccc3c2)C(=O)N2CC(OCC)CC2C(=O)NC2(CCC2)C(=O)N(C)C(C(CC)CC)C(=O)N(C)C(C(=O)N(C)C)CC(=O)N1C (stereo not shown)	A (a compound having 10 or more and less than 20 is denoted as A)	–
CCO[C@@H]1C[C@H]2C(=O)NC3(CC(C)(C)C3)C(=O)N(C)[C@@H](C3CCCC3)C(=O)N(C)[C@H](C(=O)N(C)C)CC(=O)N(C)[C@@H](COC)C(=O)N[C@@H]([C@@H](C)CC)C(=O)N(C)CC(=O)N(C)[C@H]3C/C=C\CCN(C3=O)[C@@H](Cc3ccc(C)cc3)C(=O)N(C)CC(=O)N[C@@H](CCc3cc(F)c(C(F)(F)F)c(F)c3)C(=O)N2C1	–	A (a compound having 10 or more and less than 20 is denoted as A)
CCO[C@@H]1C[C@H]2C(=O)NC3(CCC3)C(=O)N(C)[C@@H](C3CCCC3)C(=O)N(C)[C@H](C(=O)N3CCOCC3)CC(=O)N(C)[C@@H](Cc3ccccc3C#N)C(=O)N[C@@H]([C@@H](C)CC)C(=O)N(C)CC(=O)N(C)[C@H]3CCCCCN(C3=O)[C@@H](Cc3ccc(C(F)(F)F)cc3)C(=O)N(C)CC(=O)N[C@@H](CCc3cc(F)c(C(F)(F)F)c(F)c3)C(=O)N2C1	B (a compound having 3 or more and less than 10 is denoted as B)	–
